Results from ChEMBL document CHEMBL4477213, “Discovery and Optimization of Quinazolinone-pyrrolopyrrolones as Potent and Orally Bioavailable Pan-Pim Kinase Inhibitors” (J Med Chem, 2016).
pIC50: −log10 of the molar value.

Sequences of proteins named here, by UniProt entry; tags and fusion partners are left off. A change or cut given only in a name is not applied to a line headed by its entry.
UniProt P11309, whole entry: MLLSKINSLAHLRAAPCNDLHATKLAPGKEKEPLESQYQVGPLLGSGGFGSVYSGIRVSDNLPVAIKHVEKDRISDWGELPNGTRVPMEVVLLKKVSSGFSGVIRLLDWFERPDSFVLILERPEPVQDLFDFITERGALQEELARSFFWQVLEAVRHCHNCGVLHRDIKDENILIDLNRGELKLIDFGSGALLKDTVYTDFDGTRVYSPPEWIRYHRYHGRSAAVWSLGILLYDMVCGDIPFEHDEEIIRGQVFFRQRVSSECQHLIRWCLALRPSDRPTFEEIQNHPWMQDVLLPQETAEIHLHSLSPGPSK
UniProt Q9P1W9: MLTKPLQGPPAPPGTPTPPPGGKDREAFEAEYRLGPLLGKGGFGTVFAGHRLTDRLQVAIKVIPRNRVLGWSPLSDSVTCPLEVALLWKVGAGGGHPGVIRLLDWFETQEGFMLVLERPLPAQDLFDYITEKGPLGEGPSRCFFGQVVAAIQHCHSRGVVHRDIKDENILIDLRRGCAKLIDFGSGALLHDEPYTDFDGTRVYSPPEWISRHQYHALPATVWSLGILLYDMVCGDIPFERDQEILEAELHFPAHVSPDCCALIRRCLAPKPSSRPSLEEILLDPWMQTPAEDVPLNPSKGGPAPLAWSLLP

Tests used:
[1] = molecular target: Serine/threonine-protein kinase PIM (Homo sapiens, UniProt P11309+Q9P1W9+Q86V86); conditions: kms-12-bm
[2] = molecular target: Serine/threonine-protein kinase pim-2 (Homo sapiens, UniProt Q9P1W9); assay: Inhibition of full length recombinant Pim-2 (unknown origin) assessed as reduction in phosphorylation of biotinylated-BAD peptide at Serine 112 residue preincubated for 30 mins followed by substrate addition for 1 hr by HTRF assay
[3] = molecular target: Serine/threonine-protein kinase pim-1 (Homo sapiens, UniProt P11309)
Homo sapiens = species: Homo sapiens; assay: Ratio of IC50 for pan Pim in human KMS-12-BM cells to IC50 for full length recombinant Pim-2 (unknown origin); format: cell-based

Cc1nc2cccc(-c3cc4c([nH]3)CCCNC4=O)c2nc1NC(C)(C)C
IC50 [1]: 1635 nM

Cc1nc2ccc(F)c(-c3cc4c([nH]3)[C@@H](C)NC4=O)c2nc1NC(C)(C)C
pIC50 [2]: 10.00
pIC50 [3]: 10.00
IC50 [1]: 29 nM

Cc1nc2cccc(-c3cc4c([nH]3)[C@@H](C)NC4=O)c2nc1NC(C)(C)C
Ratio IC50 (Homo sapiens): 30
pIC50 [3]: 9.15
